According to patent US20240350589A1, “IL-2/IL-15RBETAGAMMA AGONIST COMBINATION WITH ANTIBODY-DRUG CONJUGATES FOR TREATING CANCER” (Cytune Pharma, priority 2021, published 2024):

Tests used:
[1] = test system: CD3-CD56+ cells (NK cells) of human PBMCs; test: In vitro activation of NK cells: RLI-15 treated PBMCs co-incubated with treated AGS tumor cells; type: cell-based; settings: PBMCs +/- 2.5 ng/ml RLI-15 72 h, 10:1, 4 h
Protocol: As controls non-treated tumor cells were incubated with non-treated PBMC (KadNT in the ADC group) and non-treated tumor cells were incubated with RLI-15 treated PBMC (KadNT in the RLI+ADC group).

AGS tumor cell line [2] = test: Expression of NK cell ligands on early apoptotic AGS cells (flow cytometry); type: cell-based, human; settings: 72 h
Protocol: Similarly, the expression of NK cell ligands CD112, CD155 and ULBP3 and ULBP2/5/6, as well as ULBP1, was determined by flow cytometry on these early apoptotic (AnnexinV^+/DAPI^−) cell populations using ULBP-2/5/6 (Biocompare, USA), CD155 (Biolegend, USA), Nectin-2/CD112 (R&D Systems, USA), ULBP-1 (Biocompare, USA) and ULBP-3 antibody (Biocompare, USA). […] (see FIG. 4).

AGS tumor cell line [3] = test: Cell surface exposure of ICD markers CRT, HSP70, HSP90 on early apoptotic AGS cells (flow cytometry); type: cell-based, human
Protocol: The cells are collected and washed twice with PBS. The cells are then incubated for 30 min with primary antibody diluted in cold blocking buffer (2% fetal bovine serum in PBS), followed by washing and incubation with an […] monoclonal secondary antibody in blocking solution. Each sample was then analyzed using a FACScan Aria (BD Bioscience). Cell surface expression of HSP70, HSP90 and CRT is analyzed on non-permeabilized annexin V-positive/DAPI-negative cells.
The expression of ICD markers Hsp70, Hsp90 and CRT as well as NK cells ligands was measured by flow cytometry on these early apoptotic (AnnexinV^+/DAPI^−) cell populations using anti-calreticulin antibody (Abcam, USA), anti-HSP70 (R&D Systems, USA), anti-HSP90 (Enzo Life Sciences, USA). APC AffiniPure F(ab′)2 Fragment Goat Anti-Mouse (Jackson ImmunoResearch) was used as a secondary antibody.

huHER2/EMT-6 tumors = test: Orthotopic huHER2/EMT-6 breast cancer model in vivo; set-up: species or system Balb/c AnN mice; settings: RLI-15 1 mg/kg s.c. days 15-18; Kadcyla 15 mg/kg i.v. days 0 and 7
Protocol: The study was initiated when the initial mean tumor volume among individual groups reached 140 mm^3. […] RLI-15 was administered in 4 sequential doses on study days 15-18 to amplify the numbers and activate immune cells. The antitumor efficacy was evaluated on the level of absolute tumor volume change. Safety has been monitored by body weight loss in individual animals. HER2 expression in individual tumors was analyzed using HercepTest™ (Dako) at the endpoint to map for potential heterogeneity of the model (staining was performed according to the instructions given by the manufacturer).

AGS tumor cell line [4] = test: In vitro killing of AGS tumor cells, AnnexinV/DAPI flow cytometry; type: cell-based, human; settings: Kadcyla 5, 7, 8, 10 μg/ml, 72 h
Text: Similar settings of the in vitro experiments described in Example 2 and Example 4 were used to screen for synergy to other ICD-inducing agents/modalities (selected standard of care chemotherapies “SoC”: doxorubicin or cisplatin).

[5] = early apoptotic cells, Kadcyla 5-10 μg/ml, 72 h

In the case of “Kadcyla: antibody-drug conjugate of humanized monoclonal antibody trastuzumab directed to HER2 covalently linked to mertansine/DM1”, the “proliferation of CD3-CD56+ NK cells” value ([1]; AGS cells +/- Kadcyla 72 h) is reported as “no subsequent proliferation”, the “% of IFNγ+ NK cells” value ([1]; AGS cells treated with Kadcyla 5-10 μg/ml 72 h) is reported as “up to 10%” and the “Kadcyla concentration at which maximum expression was reached, CD155” value (AGS tumor cell line [2]) is reported as 7 µg/kg. The “Kadcyla concentration at which maximum expression was reached, ULBP3 and ULBP2/5/6” value (AGS tumor cell line [2]) was 8 µg/kg, the “expression of NK cell ligands CD112, CD155, ULBP3 and ULBP2/5/6” value (AGS tumor cell line [2]; Kadcyla 5-10 μg/ml) was “increasing expression” and the “expression of ULBP1” value (AGS tumor cell line [2]; Kadcyla 5-10 μg/ml) was “did not show a significant change”. For the same substance, the “% of calreticulin, HSP70 and HSP90 positive cells, comparison of agents” value (AGS tumor cell line [3]; Kadcyla 7 μg/ml 72 h vs doxorubicin 1.2 μM, cisplatin 100 μM 48 h) was “more efficient”, the “% of ICD marker positive cells with increasing concentrations of Kadcyla” value (AGS tumor cell line [3]; [5]) was “this trend was stronger” and the “expression of ICD markers Hsp70, Hsp90 and CRT compared to non-treated cells” value (AGS tumor cell line [3]; [5]) was “strong increase of ICD markers”. The “mean fluorescence intensity of ICD markers with increasing concentrations of Kadcyla” value (AGS tumor cell line [3]; [5]) was “no or only a weak trend”, the “fraction of tumor cells undergoing ICD” value (AGS tumor cell line [3]; tumor cell line with low to intermediate Her-2 expression) was “large fraction of tumor cells undergoing ICD” and the “tumor volume at the end of the study” value (huHER2/EMT-6 tumors) was “intermediate tumor volume increase”. For the same substance, the “early apoptotic (AnnexinV+/DAPI-) cell population” value (AGS tumor cell line [4]) was “increasing populations of AnnexinV^+/DAPI^− cells”.
